Laboratory results reported in patent US9242993B2, “Morpholino substituted bicyclic pyrimidine urea or carbamate derivatives as mTOR inhibitors” (CELLZOME LIMITED, priority 2011, dated 2016).

Amino acid sequences for entries named in this document (tags omitted). A change or cut given only in a name is not applied to a line headed by its entry.
UniProt P42336, whole entry: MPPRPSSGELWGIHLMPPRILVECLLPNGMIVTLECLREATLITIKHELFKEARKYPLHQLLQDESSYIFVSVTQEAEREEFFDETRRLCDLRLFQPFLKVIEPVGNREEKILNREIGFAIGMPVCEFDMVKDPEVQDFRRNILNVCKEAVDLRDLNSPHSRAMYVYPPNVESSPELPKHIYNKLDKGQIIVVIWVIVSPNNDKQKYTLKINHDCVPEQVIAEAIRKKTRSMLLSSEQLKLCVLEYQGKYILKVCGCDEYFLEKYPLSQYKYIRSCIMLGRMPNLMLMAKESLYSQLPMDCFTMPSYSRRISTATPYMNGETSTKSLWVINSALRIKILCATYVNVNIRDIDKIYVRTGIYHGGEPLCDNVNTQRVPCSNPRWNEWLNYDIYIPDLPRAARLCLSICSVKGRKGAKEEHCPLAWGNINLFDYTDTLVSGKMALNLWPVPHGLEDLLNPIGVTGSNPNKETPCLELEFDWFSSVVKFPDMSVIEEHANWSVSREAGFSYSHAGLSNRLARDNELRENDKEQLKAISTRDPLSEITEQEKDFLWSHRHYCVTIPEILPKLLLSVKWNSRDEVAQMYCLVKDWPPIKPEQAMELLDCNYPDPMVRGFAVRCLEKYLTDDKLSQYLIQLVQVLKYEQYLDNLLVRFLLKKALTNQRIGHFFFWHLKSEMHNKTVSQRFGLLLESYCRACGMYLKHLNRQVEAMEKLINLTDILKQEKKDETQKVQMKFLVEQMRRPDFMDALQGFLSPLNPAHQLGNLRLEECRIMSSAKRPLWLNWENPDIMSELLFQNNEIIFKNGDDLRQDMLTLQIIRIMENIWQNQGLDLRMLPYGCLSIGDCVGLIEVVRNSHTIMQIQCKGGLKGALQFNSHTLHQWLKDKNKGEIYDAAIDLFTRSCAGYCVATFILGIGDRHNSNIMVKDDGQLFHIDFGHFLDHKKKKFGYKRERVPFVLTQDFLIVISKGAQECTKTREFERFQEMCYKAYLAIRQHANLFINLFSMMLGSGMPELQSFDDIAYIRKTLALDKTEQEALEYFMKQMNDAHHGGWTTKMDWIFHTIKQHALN
UniProt P42338: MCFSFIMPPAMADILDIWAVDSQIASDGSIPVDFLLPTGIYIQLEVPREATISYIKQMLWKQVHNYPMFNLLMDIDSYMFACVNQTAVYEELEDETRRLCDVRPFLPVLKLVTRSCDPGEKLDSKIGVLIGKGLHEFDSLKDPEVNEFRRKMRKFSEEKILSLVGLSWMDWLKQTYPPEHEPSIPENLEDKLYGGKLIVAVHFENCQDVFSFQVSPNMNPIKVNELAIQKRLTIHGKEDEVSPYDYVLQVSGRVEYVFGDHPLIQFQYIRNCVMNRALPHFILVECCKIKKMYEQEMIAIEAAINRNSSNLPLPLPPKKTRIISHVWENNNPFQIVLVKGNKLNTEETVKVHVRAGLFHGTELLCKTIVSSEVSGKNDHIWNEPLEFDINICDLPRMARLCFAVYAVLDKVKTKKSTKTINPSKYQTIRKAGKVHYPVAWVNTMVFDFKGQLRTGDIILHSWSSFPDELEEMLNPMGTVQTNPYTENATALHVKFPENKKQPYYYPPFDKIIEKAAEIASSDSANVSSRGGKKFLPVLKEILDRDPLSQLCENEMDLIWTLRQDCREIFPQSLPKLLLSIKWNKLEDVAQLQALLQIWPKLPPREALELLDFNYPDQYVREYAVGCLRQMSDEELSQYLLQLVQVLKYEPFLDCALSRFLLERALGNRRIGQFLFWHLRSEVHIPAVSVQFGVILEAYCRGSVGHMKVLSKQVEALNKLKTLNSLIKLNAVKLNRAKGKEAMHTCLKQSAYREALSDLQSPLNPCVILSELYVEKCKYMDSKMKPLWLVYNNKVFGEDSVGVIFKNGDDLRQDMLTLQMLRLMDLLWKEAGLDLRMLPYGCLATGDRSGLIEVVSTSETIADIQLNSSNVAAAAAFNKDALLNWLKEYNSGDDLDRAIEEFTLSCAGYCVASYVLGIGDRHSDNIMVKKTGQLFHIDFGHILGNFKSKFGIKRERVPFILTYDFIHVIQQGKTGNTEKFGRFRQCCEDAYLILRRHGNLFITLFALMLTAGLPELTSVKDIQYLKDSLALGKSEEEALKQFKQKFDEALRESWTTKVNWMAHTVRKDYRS
UniProt P48736: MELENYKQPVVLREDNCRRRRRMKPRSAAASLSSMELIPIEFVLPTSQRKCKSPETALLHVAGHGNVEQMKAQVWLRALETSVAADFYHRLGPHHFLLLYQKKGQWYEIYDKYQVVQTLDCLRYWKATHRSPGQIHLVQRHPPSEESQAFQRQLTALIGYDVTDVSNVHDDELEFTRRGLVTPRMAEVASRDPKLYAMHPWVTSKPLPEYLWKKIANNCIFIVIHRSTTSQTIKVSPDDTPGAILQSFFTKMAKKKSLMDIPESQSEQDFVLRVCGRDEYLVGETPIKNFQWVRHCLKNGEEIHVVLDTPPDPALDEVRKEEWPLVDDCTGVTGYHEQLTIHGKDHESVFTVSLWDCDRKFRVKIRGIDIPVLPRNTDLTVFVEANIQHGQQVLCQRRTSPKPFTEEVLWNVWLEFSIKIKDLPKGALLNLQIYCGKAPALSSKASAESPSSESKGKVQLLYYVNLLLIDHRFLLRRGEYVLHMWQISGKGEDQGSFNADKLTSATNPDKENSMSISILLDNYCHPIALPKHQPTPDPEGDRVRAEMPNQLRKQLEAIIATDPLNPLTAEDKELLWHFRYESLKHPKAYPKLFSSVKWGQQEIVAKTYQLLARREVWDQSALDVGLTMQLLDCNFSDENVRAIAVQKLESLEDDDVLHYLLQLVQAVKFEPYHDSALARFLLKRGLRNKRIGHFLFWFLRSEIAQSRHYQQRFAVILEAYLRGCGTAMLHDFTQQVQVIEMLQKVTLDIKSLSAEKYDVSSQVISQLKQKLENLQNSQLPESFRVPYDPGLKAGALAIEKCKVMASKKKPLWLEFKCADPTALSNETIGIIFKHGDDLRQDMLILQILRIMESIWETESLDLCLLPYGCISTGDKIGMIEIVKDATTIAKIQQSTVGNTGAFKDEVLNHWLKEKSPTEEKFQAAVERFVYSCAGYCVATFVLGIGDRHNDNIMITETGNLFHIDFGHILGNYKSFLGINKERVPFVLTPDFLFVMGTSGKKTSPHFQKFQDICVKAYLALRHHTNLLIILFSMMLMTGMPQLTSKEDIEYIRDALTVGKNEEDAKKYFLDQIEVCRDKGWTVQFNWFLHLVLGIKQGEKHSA
UniProt O00329: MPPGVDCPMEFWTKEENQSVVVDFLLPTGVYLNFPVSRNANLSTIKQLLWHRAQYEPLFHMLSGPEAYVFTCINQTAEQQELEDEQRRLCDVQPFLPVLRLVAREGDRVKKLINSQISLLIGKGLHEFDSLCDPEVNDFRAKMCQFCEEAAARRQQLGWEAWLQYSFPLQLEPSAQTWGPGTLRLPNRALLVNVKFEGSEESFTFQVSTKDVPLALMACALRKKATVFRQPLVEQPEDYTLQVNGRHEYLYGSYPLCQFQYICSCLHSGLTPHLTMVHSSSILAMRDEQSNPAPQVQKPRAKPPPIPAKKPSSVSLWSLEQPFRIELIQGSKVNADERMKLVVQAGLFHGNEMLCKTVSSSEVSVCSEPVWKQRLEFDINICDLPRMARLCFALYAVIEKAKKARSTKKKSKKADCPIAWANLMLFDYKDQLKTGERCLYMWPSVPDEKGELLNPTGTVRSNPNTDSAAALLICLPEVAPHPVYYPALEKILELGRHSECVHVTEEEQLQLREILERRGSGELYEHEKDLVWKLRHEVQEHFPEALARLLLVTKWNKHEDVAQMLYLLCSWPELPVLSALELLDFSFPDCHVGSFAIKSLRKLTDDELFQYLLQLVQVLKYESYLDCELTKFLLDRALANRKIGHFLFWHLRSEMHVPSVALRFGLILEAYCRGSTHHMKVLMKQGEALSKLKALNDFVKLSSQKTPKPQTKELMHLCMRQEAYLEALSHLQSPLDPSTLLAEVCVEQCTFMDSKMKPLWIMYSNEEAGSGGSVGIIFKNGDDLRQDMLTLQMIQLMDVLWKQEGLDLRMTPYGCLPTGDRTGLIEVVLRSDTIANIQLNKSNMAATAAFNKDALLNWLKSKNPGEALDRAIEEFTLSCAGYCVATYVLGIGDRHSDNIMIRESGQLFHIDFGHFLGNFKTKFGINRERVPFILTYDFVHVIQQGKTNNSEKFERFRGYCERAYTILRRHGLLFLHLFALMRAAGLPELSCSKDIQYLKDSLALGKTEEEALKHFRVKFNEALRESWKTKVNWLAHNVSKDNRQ

How the values were obtained:
Type in all cases: binding
[1] = target: PI3K alpha (PI3Ka) (Homo sapiens, UniProt P42336); experiment: kinobeads assay, PI3K alpha; conditions: Jurkat cell lysate, read-out: PI3Ka inhibition value (IC50), activity level
[2] = target: PI3K beta (PI3 Kb) (Homo sapiens, UniProt P42338); experiment: kinobeads assay, PI3K beta; conditions: Jurkat cell lysate, read-out: PI3Kb inhibition value (IC50), activity level
[3] = target: PI3K gamma (PI3 Kg) (Homo sapiens, UniProt P48736); experiment: kinobeads assay, PI3K gamma; conditions: Jurkat cell lysate, read-out: PI3Kg inhibition value (IC50), activity level
[4] = target: PI3K delta (PI3 Kd) (Homo sapiens, UniProt O00329); experiment: kinobeads assay, PI3K delta; conditions: Jurkat cell lysate, read-out: PI3Kd inhibition value (IC50), activity level

## CC1c2c(nc(-c3ccc(NC(=O)NCC4CC4)cc3)nc2N2CCOC[C@@H]2C)CS1(=O)=O (stereo partly drawn) [Example 46, 1-(cyclopropylmethyl)-3-(4-(5-methyl-4-((S)-3-methylmorpholino)-6,6-dioxido-5,7-dihydrothieno[3,4-d]pyrimidin-2-yl)phenyl)urea]
[1]
  IC50: 1 to 10 µM
[2]
  IC50: 1 to 10 µM
[3]
  IC50: > 10 µM
[4]
  IC50: > 10 µM

## C[C@@H]1COCCN1c1nc(-c2ccc(NC(=O)NC3CC3)cc2)nc2c1CS(=O)(=O)C2(C)C [Example 54, (R)-1-cyclopropyl-3-(4-(7,7-dimethyl-4-(3-methylmorpholino)-6,6-dioxido-5,7-dihydrothieno[3,4-d]pyrimidin-2-yl)phenyl)urea]
[1]
  IC50: 1 to 10 µM
[2]
  IC50: 1 to 10 µM
[3]
  IC50: > 10 µM
[4]
  IC50: > 10 µM

## CC[C@H]1COCCN1c1nc(-c2ccc(NC(=O)NC3CC3)cc2)nc2c1C(C)S(=O)(=O)C2 (stereo partly drawn) [Example 47, 1-cyclopropyl-3-(4-(4-((S)-3-ethylmorpholino)-5-methyl-6,6-dioxido-5,7-dihydrothieno[3,4-d]pyrimidin-2-yl)phenyl)urea]
[1]
  IC50: > 10 µM
[2]
  IC50: > 10 µM
[3]
  IC50: > 10 µM
[4]
  IC50: > 10 µM

## CC1c2c(nc(-c3ccc(NC(=O)NC4CC4)cc3)nc2N2CCOC[C@H]2C)CS1(=O)=O (stereo partly drawn) [Example 48, 1-cyclopropyl-3-(4-(5-methyl-4-((R)-3-methylmorpholino)-6,6-dioxido-5,7-dihydrothieno[3,4-d]pyrimidin-2-yl)phenyl)urea]
[1]
  IC50: > 10 µM
[2]
  IC50: > 10 µM
[3]
  IC50: > 10 µM
[4]
  IC50: > 10 µM
